Source: PubChem BioAssay AID602248 (The Scripps Research Institute Molecular Screening Center, 2012)
This is a selection; strong and weak results do not stand in their true shares. Some tests of the compounds listed are not included; inactive here does not mean inactive elsewhere. Activity calls are given as the source filed them. No stated cut-off is given here; in the data, active means activation above about 15%; inactive means the rest.

assay: counter-screen for M1 agonists: effect in parental CHO-K1 cells (AID 602248); settings: Fluo-8 calcium fluorescence, at 3 µM, hits give high values, scaled to maximal ATP response, vehicle zero;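 further: untransfected CHO-K1 host cells lacking M1 receptor as counterscreen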

Question: With C=CCN1CCN(CCOC(=O)C(O)(c2ccccc2)c2ccccc2)CC1 as the molecule, how does the activation read?
Answer: inactive: -0.06%

Question: With O=C(NCC1(N2CCCCC2)CCCCC1)c1cc(F)c(F)cc1Cl as the molecule, how does the activation read?
Answer: inactive: -0.37%

Question: For COc1ccc(C(=O)NCC2(N(C)C)CCCCC2)cc1, which activation is on record?
Answer: inactive: 1.44%

Question: Which activation does the source give for Cc1cc(C(=O)NCC2(N3CCCCC3)CCCCC2)ccc1[N+](=O)[O-] here?
Answer: inactive: 2.87%

Question: With CCN1CCCC(OC(=O)C2(O)c3ccccc3C=Cc3ccccc32)C1 (stereo unspecified) as the molecule, how does the activation read?
Answer: inactive: 0.65%

Question: Which activation does the source give for O=C(NCC1(N2CCCCC2)CCCCC1)c1cccc(Br)c1 here?
Answer: inactive: 0.24%

Question: Which activation does the source give for Cc1ccccc1C(=O)NCC1(N2CCCCC2)CCCCC1 here?
Answer: inactive: 0.63%

Question: For CN(C)C1CCCC1OC(=O)C(O)(c1ccccc1)c1ccccc1 (stereo unspecified), which activation is on record?
Answer: inactive: 0.13%

Question: With CN(C)c1ccc(C(=O)NCC2(N(C)C)CCCCC2)cc1 as the molecule, how does the activation read?
Answer: inactive: -0.31%

Question: For CCN(CC)CC(C)C(C)OC(=O)C(O)(c1ccccc1)c1ccccc1 (stereo unspecified), which activation is on record?
Answer: inactive: 1.74%

Question: With COc1cc(SC)ccc1C(=O)NCC1(N(C)C)CCCCC1 as the molecule, how does the activation read?
Answer: inactive: 0.46%

Question: With CC(C)N1C(=O)CC2(CCN(CCOC(=O)C(O)(c3ccccc3)c3ccccc3)CC2)C1=O as the molecule, how does the activation read?
Answer: inactive: 1.76%

Question: For Cc1ccc(C(=O)NCC2(N3CCCCC3)CCCCC2)cc1, which activation is on record?
Answer: inactive: -0.19%

Question: For O=C(NCC1(N2CCCCC2)CCCCC1)c1cc([N+](=O)[O-])ccc1Cl, which activation is on record?
Answer: inactive: 0.45%

Question: With CN1[C@@H]2CC[C@H]1CC(OC(=O)C(O)(c1ccccc1)c1ccccc1)C2 (stereo partly specified) as the molecule, how does the activation read?
Answer: inactive: 1.5%

Question: For C=C(C)C#CC(O)(C(=O)OC1CCN(C)CC1)c1ccccc1 (stereo unspecified), which activation is on record?
Answer: inactive: 0.01%

Question: With COc1ccc(Br)c(C(=O)NCC2(N3CCCCC3)CCCCC2)c1 as the molecule, how does the activation read?
Answer: inactive: 0.48%

Question: For CC(C)Oc1ccc(C(=O)NCC2(N(C)C)CCCCC2)cc1, which activation is on record?
Answer: inactive: 0.5%

Question: For O=C(OCCN1CCCC1)C(O)(c1ccccc1)c1ccccc1, which activation is on record?
Answer: inactive: 0.32%

Question: With CN(C)c1cccc(C(=O)NCC2(N(C)C)CCCCC2)c1 as the molecule, how does the activation read?
Answer: inactive: -0.1%

Question: With O=C(OC1CN2CCC1CC2)C(CO)(c1ccccc1)c1ccccc1 (stereo unspecified) as the molecule, how does the activation read?
Answer: inactive: 0.63%

Question: For COc1cccc(C(=O)NCC2(N3CCCCC3)CCCCC2)c1, which activation is on record?
Answer: inactive: 0.51%

Question: With COc1ccc(Cl)cc1C(=O)NCC1(N(C)C)CCCCC1 as the molecule, how does the activation read?
Answer: inactive: 1.37%

Question: Which activation does the source give for O=C(NCC1(N2CCCCC2)CCCCC1)c1cccc(Cl)c1 here?
Answer: inactive: 0.45%

Question: Which activation does the source give for CN(C)C1(CNC(=O)c2ccc(Br)cc2)CCCCC1 here?
Answer: inactive: 0.55%

Question: With COc1cc(C(=O)NCC2(N(C)C)CCCCC2)c([N+](=O)[O-])cc1OC as the molecule, how does the activation read?
Answer: inactive: 1.3%
